Measurements reported in patent EP4834897A1, “COMPOUNDS WITH TWO AZAHETEROCYCLES SUBSTITUTED ISOINDOLINONE SKELETON AND USES THEREOF” (dated 2026).

The chains behind the UniProt entries cited, without tags or fusion partners.
UniProt Q13422, whole entry: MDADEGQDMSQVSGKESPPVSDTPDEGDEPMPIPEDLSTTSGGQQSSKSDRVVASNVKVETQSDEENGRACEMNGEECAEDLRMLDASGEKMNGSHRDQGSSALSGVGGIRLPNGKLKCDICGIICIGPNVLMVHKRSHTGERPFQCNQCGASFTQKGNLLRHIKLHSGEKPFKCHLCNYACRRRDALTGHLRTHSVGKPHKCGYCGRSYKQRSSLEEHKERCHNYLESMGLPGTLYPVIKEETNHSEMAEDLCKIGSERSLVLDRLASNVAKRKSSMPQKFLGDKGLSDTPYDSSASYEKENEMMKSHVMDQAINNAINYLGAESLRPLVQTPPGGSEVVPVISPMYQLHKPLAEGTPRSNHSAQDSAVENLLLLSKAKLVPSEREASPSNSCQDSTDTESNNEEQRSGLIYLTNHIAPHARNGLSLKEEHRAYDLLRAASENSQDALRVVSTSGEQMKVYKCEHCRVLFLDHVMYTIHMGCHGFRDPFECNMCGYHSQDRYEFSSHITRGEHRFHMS
UniProt Q96SW2, whole entry: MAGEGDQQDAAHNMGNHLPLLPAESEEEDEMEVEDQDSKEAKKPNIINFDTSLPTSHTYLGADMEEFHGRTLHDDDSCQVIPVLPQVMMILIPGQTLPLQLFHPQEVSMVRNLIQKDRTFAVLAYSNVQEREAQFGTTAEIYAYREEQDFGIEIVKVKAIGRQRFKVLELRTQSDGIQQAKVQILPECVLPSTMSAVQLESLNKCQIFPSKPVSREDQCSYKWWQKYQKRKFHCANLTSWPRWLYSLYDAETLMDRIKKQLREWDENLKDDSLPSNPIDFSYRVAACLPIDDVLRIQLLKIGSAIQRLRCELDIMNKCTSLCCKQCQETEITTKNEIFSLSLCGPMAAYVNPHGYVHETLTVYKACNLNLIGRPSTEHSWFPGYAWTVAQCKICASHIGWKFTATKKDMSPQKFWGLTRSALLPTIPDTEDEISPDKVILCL
UniProt Q9UKT9, whole entry: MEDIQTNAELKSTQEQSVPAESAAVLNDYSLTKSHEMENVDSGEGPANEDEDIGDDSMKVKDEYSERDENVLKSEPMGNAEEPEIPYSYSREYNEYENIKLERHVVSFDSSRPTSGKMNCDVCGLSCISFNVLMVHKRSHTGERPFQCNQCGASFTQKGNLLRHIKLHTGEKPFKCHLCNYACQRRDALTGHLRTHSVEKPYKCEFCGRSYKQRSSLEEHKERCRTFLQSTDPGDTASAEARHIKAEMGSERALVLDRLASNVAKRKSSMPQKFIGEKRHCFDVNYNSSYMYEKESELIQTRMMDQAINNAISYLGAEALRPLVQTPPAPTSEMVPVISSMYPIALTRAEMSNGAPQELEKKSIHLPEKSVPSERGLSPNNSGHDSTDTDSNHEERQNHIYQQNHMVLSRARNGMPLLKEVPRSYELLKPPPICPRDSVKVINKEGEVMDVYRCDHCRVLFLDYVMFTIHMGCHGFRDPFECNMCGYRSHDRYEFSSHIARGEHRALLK
UniProt Q9UKS7, whole entry: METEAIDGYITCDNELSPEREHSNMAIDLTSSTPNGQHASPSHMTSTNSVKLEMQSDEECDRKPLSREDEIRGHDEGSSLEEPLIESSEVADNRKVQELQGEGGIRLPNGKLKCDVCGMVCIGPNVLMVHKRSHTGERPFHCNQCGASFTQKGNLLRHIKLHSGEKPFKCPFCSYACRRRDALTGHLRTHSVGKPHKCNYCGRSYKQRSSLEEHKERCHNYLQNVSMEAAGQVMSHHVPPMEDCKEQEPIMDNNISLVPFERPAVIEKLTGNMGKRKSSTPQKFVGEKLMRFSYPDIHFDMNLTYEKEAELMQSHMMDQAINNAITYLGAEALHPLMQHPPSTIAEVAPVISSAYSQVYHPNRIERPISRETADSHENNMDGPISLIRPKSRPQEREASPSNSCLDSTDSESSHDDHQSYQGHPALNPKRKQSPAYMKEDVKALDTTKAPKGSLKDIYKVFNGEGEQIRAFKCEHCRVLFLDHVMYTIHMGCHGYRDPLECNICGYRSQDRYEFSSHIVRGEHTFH
UniProt P15170, whole entry: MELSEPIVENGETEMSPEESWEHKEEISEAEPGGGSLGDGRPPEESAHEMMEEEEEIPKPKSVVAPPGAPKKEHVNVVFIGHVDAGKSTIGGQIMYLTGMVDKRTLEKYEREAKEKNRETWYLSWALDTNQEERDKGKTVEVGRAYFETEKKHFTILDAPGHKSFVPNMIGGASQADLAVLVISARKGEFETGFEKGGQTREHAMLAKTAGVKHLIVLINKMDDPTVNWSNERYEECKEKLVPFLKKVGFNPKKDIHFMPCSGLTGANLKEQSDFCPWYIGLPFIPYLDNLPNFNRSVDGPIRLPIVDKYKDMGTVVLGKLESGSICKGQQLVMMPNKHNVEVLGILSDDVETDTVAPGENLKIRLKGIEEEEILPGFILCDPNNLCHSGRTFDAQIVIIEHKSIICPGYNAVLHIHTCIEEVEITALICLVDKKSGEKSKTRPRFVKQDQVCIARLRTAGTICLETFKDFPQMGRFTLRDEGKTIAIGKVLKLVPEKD
UniProt P48729, whole entry: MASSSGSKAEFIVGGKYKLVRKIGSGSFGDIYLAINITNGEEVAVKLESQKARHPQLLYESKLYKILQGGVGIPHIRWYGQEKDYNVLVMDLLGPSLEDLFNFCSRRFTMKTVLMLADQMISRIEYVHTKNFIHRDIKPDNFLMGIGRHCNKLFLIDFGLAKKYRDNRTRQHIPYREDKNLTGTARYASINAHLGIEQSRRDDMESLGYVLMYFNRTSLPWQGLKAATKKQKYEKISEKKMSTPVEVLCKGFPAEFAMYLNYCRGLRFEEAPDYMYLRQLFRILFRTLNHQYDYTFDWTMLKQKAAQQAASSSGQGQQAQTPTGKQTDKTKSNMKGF
UniProt P30291, whole entry: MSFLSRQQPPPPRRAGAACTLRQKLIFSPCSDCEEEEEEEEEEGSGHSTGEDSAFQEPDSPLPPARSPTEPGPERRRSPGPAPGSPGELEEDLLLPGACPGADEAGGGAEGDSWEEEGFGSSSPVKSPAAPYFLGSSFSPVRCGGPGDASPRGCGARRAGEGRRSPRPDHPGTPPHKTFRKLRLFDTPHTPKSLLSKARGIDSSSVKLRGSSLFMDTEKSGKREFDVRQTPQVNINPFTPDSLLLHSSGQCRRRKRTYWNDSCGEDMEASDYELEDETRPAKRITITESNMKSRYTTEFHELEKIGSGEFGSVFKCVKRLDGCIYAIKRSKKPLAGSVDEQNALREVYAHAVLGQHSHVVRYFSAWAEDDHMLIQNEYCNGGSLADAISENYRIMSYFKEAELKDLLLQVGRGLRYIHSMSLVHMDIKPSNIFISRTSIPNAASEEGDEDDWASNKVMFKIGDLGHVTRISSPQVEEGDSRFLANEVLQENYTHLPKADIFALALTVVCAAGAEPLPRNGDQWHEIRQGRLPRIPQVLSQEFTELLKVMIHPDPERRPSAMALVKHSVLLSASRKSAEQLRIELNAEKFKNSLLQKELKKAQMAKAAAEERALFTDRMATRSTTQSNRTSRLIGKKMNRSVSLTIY
UniProt Q16531, whole entry partner: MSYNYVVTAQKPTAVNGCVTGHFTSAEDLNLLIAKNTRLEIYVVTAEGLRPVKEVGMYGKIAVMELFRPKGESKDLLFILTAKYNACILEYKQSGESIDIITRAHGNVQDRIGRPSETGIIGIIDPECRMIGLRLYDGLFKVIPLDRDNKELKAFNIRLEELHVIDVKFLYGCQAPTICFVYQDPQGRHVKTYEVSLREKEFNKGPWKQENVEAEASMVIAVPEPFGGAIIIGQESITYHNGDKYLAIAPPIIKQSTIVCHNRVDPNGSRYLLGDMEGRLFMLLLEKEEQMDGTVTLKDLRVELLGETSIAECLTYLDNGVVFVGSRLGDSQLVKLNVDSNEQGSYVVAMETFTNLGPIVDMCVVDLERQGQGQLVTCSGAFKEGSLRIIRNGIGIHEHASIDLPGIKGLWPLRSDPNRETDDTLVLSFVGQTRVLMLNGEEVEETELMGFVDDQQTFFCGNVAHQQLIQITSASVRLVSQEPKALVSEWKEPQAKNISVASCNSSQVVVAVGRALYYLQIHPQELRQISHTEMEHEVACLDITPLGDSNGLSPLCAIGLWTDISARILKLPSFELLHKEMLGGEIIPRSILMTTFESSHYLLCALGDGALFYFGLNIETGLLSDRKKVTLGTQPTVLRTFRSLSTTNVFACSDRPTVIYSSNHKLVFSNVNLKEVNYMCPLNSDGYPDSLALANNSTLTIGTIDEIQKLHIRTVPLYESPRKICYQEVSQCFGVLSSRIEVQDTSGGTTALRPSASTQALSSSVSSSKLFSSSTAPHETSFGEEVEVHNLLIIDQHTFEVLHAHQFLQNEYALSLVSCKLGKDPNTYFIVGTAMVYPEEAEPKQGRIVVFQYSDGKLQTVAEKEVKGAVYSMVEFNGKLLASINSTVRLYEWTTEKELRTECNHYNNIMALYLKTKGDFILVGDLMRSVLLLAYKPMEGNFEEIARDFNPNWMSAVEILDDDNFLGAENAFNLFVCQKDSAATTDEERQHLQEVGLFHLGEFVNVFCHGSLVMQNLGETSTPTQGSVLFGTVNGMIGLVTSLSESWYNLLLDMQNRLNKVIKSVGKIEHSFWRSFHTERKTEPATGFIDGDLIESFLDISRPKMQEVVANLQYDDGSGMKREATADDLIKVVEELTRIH

Experiments:
IKZF1 = IKZF1 (Homo sapiens, UniProt Q13422+Q96SW2); assay: Western blot assay of substrate protein degradation in hPBMCs; conditions: 24 hours treatment, compounds at 50 nM and 500 nM (concentration behind the class not stated)
IKZF3 = IKZF3 (Homo sapiens, UniProt Q96SW2+Q9UKT9); assay: as above; conditions: 24 hours treatment, compounds at 50 nM and 500 nM (concentration behind the class not stated)
IKZF2 = IKZF2 (Homo sapiens, UniProt Q96SW2+Q9UKS7); assay: as above; conditions: 24 hours treatment, compounds at 50 nM and 500 nM (concentration behind the class not stated)
GSPT1 = GSPT1 (Homo sapiens, UniProt P15170+Q96SW2); assay: as above; conditions: 24 hours treatment, compounds at 50 nM and 500 nM (concentration behind the class not stated)
CK1α = CK1α (Homo sapiens, UniProt P48729+Q96SW2); assay: as above; conditions: 24 hours treatment, compounds at 50 nM and 500 nM (concentration behind the class not stated)
WEE1 = WEE1 (Homo sapiens, UniProt P30291+Q96SW2); assay: as above; conditions: 24 hours treatment, compounds at 50 nM and 500 nM (concentration behind the class not stated)
CRBN = CRBN (Homo sapiens, UniProt Q96SW2); assay: CRBN binding affinity by HTRF (CEREBLON BINDING kit); conditions: for Inhibition Rate at 0.5 µM (%) / Inhibition Rate at 2 µM (%): CRBN binding, HTRF; for Inhibition Rate at 0.5 µM (%): compound at 0.5 µM; for Inhibition Rate at 2 µM (%): compound at 2 µM; for IC50: read-out: HTRF IC50, human Cereblon WT GST-tagged protein, 3 hours at room temperature

| SMILES | Inhibition Rate at 0.5 µM (%) (CRBN) | Inhibition Rate at 2 µM (%) (CRBN) | IC50 (CRBN) [nM] | substrate protein remaining % (IKZF 1) (IKZF1) | substrate protein remaining % (IKZF3) (IKZF3) | substrate protein remaining % (IKZF2) (IKZF2) | substrate protein remaining % (GSPT1) (GSPT1) | substrate protein remaining % (CK1a) (CK1α) | substrate protein remaining % (WEE1) (WEE1) |
| --- | --- | --- | --- | --- | --- | --- | --- | --- | --- |
| O=C1CCC(N2Cc3cc(CN4CCC(N5CCN(C(c6ccccc6)c6ccccc6)CC5)CC4)cc(F)c3C2=O)C(=O)N1 (centres unmarked) | – | – | 500 to 1000 | B (80%< substrate protein remaining %≤ 100%) | A (0% ≤ substrate protein remaining % ≤ 80%) | A (0% ≤ substrate protein remaining % ≤ 80%) | A (0% ≤ substrate protein remaining % ≤ 80%) | B (80%< substrate protein remaining %≤ 100%) | B (80%< substrate protein remaining %≤ 100%) |
| O=C1CCC(N2Cc3cc(C(=O)N4CCC(N5CCC(c6noc7cc(F)ccc67)CC5)C(F)(F)C4)ccc3C2=O)C(=O)N1 (centres unmarked) | a6 (60% < a6 ≤ 70%) | a8 (80% < a8 ≤100%) | – | B (80%< substrate protein remaining %≤ 100%) | B (80%< substrate protein remaining %≤ 100%) | B (80%< substrate protein remaining %≤ 100%) | B (80%< substrate protein remaining %≤ 100%) | B (80%< substrate protein remaining %≤ 100%) | A (0% ≤ substrate protein remaining % ≤ 80%) |
| O=C1CCC(N2Cc3cc(C(=O)N4CCC(N5CCN(c6noc7cc(F)ccc67)CC5)CC4)ccc3C2=O)C(=O)N1 (centres unmarked) | a3 (30% < a3 ≤ 40%) | a6 (60% < a6 ≤ 70%) | – | B (80%< substrate protein remaining %≤ 100%) | B (80%< substrate protein remaining %≤ 100%) | B (80%< substrate protein remaining %≤ 100%) | A (0% ≤ substrate protein remaining % ≤ 80%) | B (80%< substrate protein remaining %≤ 100%) | A (0% ≤ substrate protein remaining % ≤ 80%) |
| CC1(C)CCC(CN2CCN(C3CCN(Cc4ccc5c(c4)C(=S)N(C4CCC(=O)NC4=O)C5)CC3(F)F)CC2)=C(c2ccc(Cl)cc2)C1 (centres unmarked) | a3 (30% < a3 ≤ 40%) | a6 (60% < a6 ≤ 70%) | – | B (80%< substrate protein remaining %≤ 100%) | A (0% ≤ substrate protein remaining % ≤ 80%) | B (80%< substrate protein remaining %≤ 100%) | A (0% ≤ substrate protein remaining % ≤ 80%) | B (80%< substrate protein remaining %≤ 100%) | B (80%< substrate protein remaining %≤ 100%) |
| O=C1CCC(N2Cc3ccc(CN4CCC(N5CCN(c6noc7cc(F)ccc67)CC5)CC4)cc3C2=S)C(=O)N1 (centres unmarked) | a2 (20% < a2 ≤ 30%) | a6 (60% < a6 ≤ 70%) | – | B (80%< substrate protein remaining %≤ 100%) | B (80%< substrate protein remaining %≤ 100%) | B (80%< substrate protein remaining %≤ 100%) | A (0% ≤ substrate protein remaining % ≤ 80%) | A (0% ≤ substrate protein remaining % ≤ 80%) | B (80%< substrate protein remaining %≤ 100%) |

Now from value to molecule, other results behind:

| Inhibition Rate at 0.5 µM (%) (CRBN) | Inhibition Rate at 2 µM (%) (CRBN) | IC50 (CRBN) [nM] | SMILES | substrate protein remaining % (IKZF 1) (IKZF1) | substrate protein remaining % (IKZF3) (IKZF3) | substrate protein remaining % (IKZF2) (IKZF2) | substrate protein remaining % (GSPT1) (GSPT1) | substrate protein remaining % (CK1a) (CK1α) | substrate protein remaining % (WEE1) (WEE1) |
| --- | --- | --- | --- | --- | --- | --- | --- | --- | --- |
| a2 (20% < a2 ≤ 30%) | a5 (53% < a5 ≤ 60%) | – | O=C1CCC(N2Cc3cccc(CN4CCC(N5CCN(c6cccc(Cl)c6Cl)CC5)C(F)(F)C4)c3C2=O)C(=O)N1 (centres unmarked) | A (0% ≤ substrate protein remaining % ≤ 80%) | B (80%< substrate protein remaining %≤ 100%) | B (80%< substrate protein remaining %≤ 100%) | A (0% ≤ substrate protein remaining % ≤ 80%) | A (0% ≤ substrate protein remaining % ≤ 80%) | A (0% ≤ substrate protein remaining % ≤ 80%) |
| – | – | 500 to 1000 | O=C1CCC(N2Cc3cc(CN4CCC(N5CCN(C(c6ccccc6)c6ccccn6)CC5)C(F)(F)C4)ccc3C2=O)C(=O)N1 (centres unmarked) | A (0% ≤ substrate protein remaining % ≤ 80%) | A (0% ≤ substrate protein remaining % ≤ 80%) | A (0% ≤ substrate protein remaining % ≤ 80%) | A (0% ≤ substrate protein remaining % ≤ 80%) | B (80%< substrate protein remaining %≤ 100%) | A (0% ≤ substrate protein remaining % ≤ 80%) |
| a1 (10% < a1 ≤ 20%) | a5 (53% < a5 ≤ 60%) | – | CC1(C)CCC(C(=O)N2CCN(C3CCN(Cc4cccc5c4C(=O)N(C4CCC(=O)NC4=O)C5=O)CC3(F)F)CC2)=C(c2ccc(Cl)cc2)C1 (centres unmarked) | B (80%< substrate protein remaining %≤ 100%) | A (0% ≤ substrate protein remaining % ≤ 80%) | A (0% ≤ substrate protein remaining % ≤ 80%) | A (0% ≤ substrate protein remaining % ≤ 80%) | A (0% ≤ substrate protein remaining % ≤ 80%) | A (0% ≤ substrate protein remaining % ≤ 80%) |
| a5 (53% < a5 ≤ 60%) | a8 (80% < a8 ≤100%) | – | CC1(C)CCC(C(=O)N2CCN(C3CCN(Cc4cccc5c4CN(C4CCC(=O)NC4=O)C5=S)CC3(F)F)CC2)=C(c2ccc(Cl)cc2)C1 (centres unmarked) | B (80%< substrate protein remaining %≤ 100%) | A (0% ≤ substrate protein remaining % ≤ 80%) | B (80%< substrate protein remaining %≤ 100%) | A (0% ≤ substrate protein remaining % ≤ 80%) | B (80%< substrate protein remaining %≤ 100%) | B (80%< substrate protein remaining %≤ 100%) |
| a5 (53% < a5 ≤ 60%) | a8 (80% < a8 ≤100%) | – | O=C1CCC(N2Cc3c(CN4CCC(N5CCN(c6noc7cc(F)ccc67)CC5)C(F)(F)C4)cccc3C2=S)C(=O)N1 (centres unmarked) | B (80%< substrate protein remaining %≤ 100%) | B (80%< substrate protein remaining %≤ 100%) | B (80%< substrate protein remaining %≤ 100%) | A (0% ≤ substrate protein remaining % ≤ 80%) | B (80%< substrate protein remaining %≤ 100%) | A (0% ≤ substrate protein remaining % ≤ 80%) |
| a2 (20% < a2 ≤ 30%) | a5 (53% < a5 ≤ 60%) | – | O=C1CCC(N2Cc3cc(C(=O)N4CCC(N5CCN(c6cccc(Cl)c6Cl)CC5)CC4)cc(F)c3C2=O)C(=O)N1 (centres unmarked) | B (80%< substrate protein remaining %≤ 100%) | B (80%< substrate protein remaining %≤ 100%) | B (80%< substrate protein remaining %≤ 100%) | A (0% ≤ substrate protein remaining % ≤ 80%) | B (80%< substrate protein remaining %≤ 100%) | B (80%< substrate protein remaining %≤ 100%) |
